{"source": "patent US20060078921A1", "about": "“Biomarkers and expression profiles for toxicology” (priority 2002, published 2006)", "key": {"[1]": {"system": "CYP2B", "conditions": "liver"}, "[2]": {"system": "candidate marker genes (Table 4)", "experiment": "RT-PCR of candidate marker genes to differentiate toxic and non-toxic 5-HT6 receptor antagonists (FIG. 10)", "type": "in vivo, Wistar rats", "conditions": "rat liver, some of the selected genes"}}}
{"substance": "(4-Amino-N-(6-bromo-1 H-indol-4-yl)-benzenesulfonamide [Ro65-7199]", "values": [{"measurement": "induction of CYP2B protein (Western blot)", "setting": "[1]; 6 hours after administration", "result": "could not be detected"}, {"measurement": "protein levels of CYP2B (Western blot)", "setting": "[1]; 24 hours and 7 days after treatment", "result": "closely paralleled the amounts of mRNA"}, {"measurement": "expression levels of selected marker genes (RT-PCR, FIG. 10)", "setting": "[2]", "result": "larger effect"}]}
